Legend:
[1] = system: 13 PDAC cell lines; assay: Phenotypic drug combination viability screen (ATPlite, 72 h), cell line panel; assay type: cell-based, human
Description: Cell viability was assessed by measuring ATP levels to indicate metabolic activity.
Afterward, small amounts were transferred to 384-well intermediate plates (Greiner Bio-One GmbH, Germany). […] For drug combination screening, 1000 to 5000 cells were seeded into 384-well plates (CulturPlate™, Perkin Elmer, MA, USA) using a Multidrop™ Combi Reagent Dispenser (Thermo Scientific, MA, USA) in 50 µl medium per well 24 h prior to drug treatment (seeding densities see Appendix Table S1). […] The final DMSO concentration in each well was 0.2%. […] Eight wells per plate without library drug served as negative controls, and sixteen wells per plate containing 5 µM Staurosporine served as positive controls. Control plates not containing any drug were used to correct for incubation effects, and data quality was assessed by calculation of Z-prime of positive and negative controls according to1 Z-prime=1−3SDpos+3SDneg/[…] where SD is the standard deviation. […] Dose–response curves from the experimental and hypothetical data were compared, and shifts in AUC were used to describe combination effects (AUC∆ = AUChypothetical − AUCexperimental). […] Only combinations with R^2 > 0.8 in both conditions were considered in the synergy analysis.

[2] = system: AsPC-1 cells; assay: Cell proliferation assay, chemodrug + ATR inhibitor (Incucyte confluence, 72 h);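 further: underlying read-out for every value is AsPC-1 confluence after 72 h incubation at 37 °C and 5% CO2, divided by that well's starting confluence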

Structure (SMILES): CN(C)CCCOc1ccc(-c2ccc3ncc4c(c3c2)n(C2CCOCC2)c(=O)n4C)cn1 [AZD-0156]
- median ΣAUC∆ across all cell lines [1]: < 2%
- synergy with GEM (Bliss model, ΣAUC∆ > 10%) [1]: did not synergize

Structure (SMILES): Nc1ccn([C@@H]2O[C@H](CO)[C@@H](O)C2(F)F)c(=O)n1 [GEM, Gemcitabine]
- Raw data (confluence at 72 h/confluence at 0 h) ([2]; Berzosertib experiment, replicate R3, titrated drug dose 300 nM): 1.71
- Raw data (confluence at 72 h/confluence at 0 h) ([2]; Berzosertib experiment, replicate R3, titrated drug dose 1000 nM): 1.8
- Raw data (confluence at 72 h/confluence at 0 h) ([2]; Berzosertib experiment, replicate R3, titrated drug dose 3000 nM): 1.68
- Raw data (confluence at 72 h/confluence at 0 h) ([2]; Berzosertib experiment, replicate R1, titrated drug dose 1000 nM): 1.69
- Raw data (confluence at 72 h/confluence at 0 h) ([2]; Berzosertib experiment, replicate R1, titrated drug dose 3000 nM): 1.73
- Raw data (confluence at 72 h/confluence at 0 h) ([2]; Berzosertib experiment, replicate R2, titrated drug dose 100 nM): 1.85
- Raw data (confluence at 72 h/confluence at 0 h) ([2]; Berzosertib experiment, replicate R2, titrated drug dose 300 nM): 1.87
- Raw data (confluence at 72 h/confluence at 0 h) ([2]; Berzosertib experiment, replicate R2, titrated drug dose 1000 nM): 1.78
- Raw data (confluence at 72 h/confluence at 0 h) ([2]; Berzosertib experiment, replicate R2, titrated drug dose 3000 nM): 1.62
- Raw data (confluence at 72 h/confluence at 0 h) ([2]; Ceralasertib experiment, replicate R1, titrated drug dose 300 nM): 1.87
- Raw data (confluence at 72 h/confluence at 0 h) ([2]; Ceralasertib experiment, replicate R1, titrated drug dose 1000 nM): 1.67
- Raw data (confluence at 72 h/confluence at 0 h) ([2]; Ceralasertib experiment, replicate R1, titrated drug dose 3000 nM): 1.72
- Raw data (confluence at 72 h/confluence at 0 h) ([2]; Ceralasertib experiment, replicate R2, titrated drug dose 1000 nM): 1.83
- Raw data (confluence at 72 h/confluence at 0 h) ([2]; Ceralasertib experiment, replicate R2, titrated drug dose 3000 nM): 1.66
- Raw data (confluence at 72 h/confluence at 0 h) ([2]; Experiment (ATRi) Elimusertib, replicate R1, drug dose (titrated) 300 nM): 1.67
- Raw data (confluence at 72 h/confluence at 0 h) ([2]; Experiment (ATRi) Elimusertib, replicate R2, drug dose (titrated) 300 nM): 1.86
- Raw data (confluence at 72 h/confluence at 0 h) ([2]; Experiment (ATRi) Elimusertib, replicate R2, drug dose (titrated) 1000 nM): 1.79
- Raw data (confluence at 72 h/confluence at 0 h) ([2]; Experiment (ATRi) Elimusertib, replicate R2, drug dose (titrated) 3000 nM): 1.67
- Raw data (confluence at 72 h/confluence at 0 h) ([2]; Experiment (ATRi) Elimusertib, replicate R3, drug dose (titrated) 300 nM): 1.81
- Raw data (confluence at 72 h/confluence at 0 h) ([2]; Experiment (ATRi) Elimusertib, replicate R3, drug dose (titrated) 1000 nM): 1.69
- Raw data (confluence at 72 h/confluence at 0 h) ([2]; Experiment (ATRi) Elimusertib, replicate R3, drug dose (titrated) 3000 nM): 1.67
- Raw data (confluence at 72 h/confluence at 0 h) ([2]; Experiment (ATRi) Gartisertib, replicate R1, drug dose (titrated) 1000 nM): 1.78
- Raw data (confluence at 72 h/confluence at 0 h) ([2]; Experiment (ATRi) Gartisertib, replicate R1, drug dose (titrated) 3000 nM): 1.7
- Raw data (confluence at 72 h/confluence at 0 h) ([2]; Gartisertib experiment, replicate R3, titrated drug dose 1000 nM): 1.87
- Raw data (confluence at 72 h/confluence at 0 h) ([2]; titrated drug dose 100 nM, replicate R3, experiment (ATRi) Ceralasertib, AsPC-1, 72 h): 1.81
- Raw data (confluence at 72 h/confluence at 0 h) ([2]; titrated drug dose 300 nM, replicate R3, experiment (ATRi) Ceralasertib, AsPC-1, 72 h): 1.81
- Raw data (confluence at 72 h/confluence at 0 h) ([2]; titrated drug dose 3000 nM, replicate R3, experiment (ATRi) Ceralasertib, AsPC-1, 72 h): 1.61
